# Laboratory results taken from PubChem BioAssay AID920 (The Scripps Research Institute Molecular Screening Center, 2007).
# Only a part is listed here, and it is no random draw. Some results for these compounds are left out of this collection, so the calls shown say nothing about other tests. The source made the active and inactive calls.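 Rule for the calls: active = inhibition above a set limit, the mean inhibition across all tested compounds plus 3 SD (cut at about 34% in these data); inactive = the rest.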
# Assay: STAT1 signaling inhibitors, primary screen, cell-based, HTS, luciferase reporter (AID 920);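 note: 0% = IFN-gamma with DMSO and 100% = IFN-gamma with 300 µM nifuroxazide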
# Conditions: NIH 3T3 STAT1-luciferase reporter, IFN-gamma, luminescence; at 5.5 µM; hits give high values
row,Compound,inhibition
1,CN(C)C1CCCC1OC(=O)C(O)(c1ccccc1)c1ccccc1 (centres undefined),inactive: 4.06%
2,Cc1ccccc1C(=O)NCC1(N2CCCCC2)CCCCC1,inactive: 0.72%
3,C=CCN1CCN(CCOC(=O)C(O)(c2ccccc2)c2ccccc2)CC1,inactive: 1.6%
4,CCN1CCCC(OC(=O)C2(O)c3ccccc3C=Cc3ccccc32)C1 (centres undefined),inactive: -4.66%
5,O=C(NCC1(N2CCCCC2)CCCCC1)c1cc([N+](=O)[O-])ccc1Cl,inactive: 4.58%
6,CC(C)N1C(=O)CC2(CCN(CCOC(=O)C(O)(c3ccccc3)c3ccccc3)CC2)C1=O,inactive: 0.63%
7,O=C(OC1CN2CCC1CC2)C(CO)(c1ccccc1)c1ccccc1 (centres undefined),inactive: -5.43%
8,CN(C)c1cccc(C(=O)NCC2(N(C)C)CCCCC2)c1,inactive: -0.88%
9,COc1cccc(C(=O)NCC2(N3CCCCC3)CCCCC2)c1,inactive: 0.15%
